Screening results deposited in PubChem BioAssay by National Center for Advancing Translational Sciences (NCATS).
Compounds with a hit are over-represented: about 2.3% of the library has one in this group of screens.
A549 viability – kills or reduces viability of A549 cells in Nrf2 counter-screen; A549 ARE-Fluc cells, CellTiter-Fluor viability, 18-24 h; Potency, µM (titrated, usually from 46 µM), inactives show top-dose activity change, negative = cytotoxicity, usual class: inhibitors; 390,000 tested, 0.16% active; note: potency is the fitted concentration of half-maximal effect; % is set by controls: 0 for no effect and ±100 for the full control effect
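A549 ARE_Fluc cells in 5% FBS OPTI-MEM were exposed to compounds in concentration-response for 18-24 h at 37 deg C. Viability was read by CellTiter-Fluor fluorescence (Ex 405/Em 525) after 30 min, before the luciferase read.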
Mito fusion act – mitochondrial division inhibition or fusion activation; Potency, µM (highest dose often 46.1 µM), without a hit: at the top dose growth rescue (activation), actives largely listed as activators; 320,000 tested, 0.23% active; AID 485298; S. cerevisiae fusion-defective mutant growth rescue, CellTiterGlo 48 h; note: potency is the fitted concentration of half-maximal effect; % of control where 0% means no effect; nearly all actives have a fitted effect of over 45% in size
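Yeast fusion mutant, YPEG (non-fermentable carbon), compound, 48 h at 37C non-permissive; CellTiterGlo added, 10 min RT, luminescence read. Rescued growth = division inhibition.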
Nrf2 ARE act – activates Nrf2 signaling; AREc32 ARE-luciferase reporter (MCF7-derived line), luminescence, 24 h; Potency, µM (highest dose often 46.1 µM), inactives show at the highest dose activation, hits mostly activators; 410,000 tested, 0.31% active; AID 624171; note: potency is the fitted concentration of half-maximal effect; % of control where 0% means no effect; nearly all actives have a fitted effect of over 65% in size
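ARE activation measured as luciferase luminescence (Steady-Glo, 30 min RT) in AREc32_Fluc cells after 24 hr compound exposure at 37 deg C, 5% CO2; cells seeded overnight at 1000/well in OPTI-MEM, 5% FBS.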
Nrf2 inh – blocks Nrf2 signaling. Potency, µM (titrated, usually from 46 µM), without a hit: at the top dose activity change, negative = inhibition, actives largely listed as inhibitors. 360,000 tested, 2.1% active. AID 504444. A549 ARE-Fluc reporter, luciferase luminescence, 18-24 h; note: potency is the fitted concentration of half-maximal effect; % is set by controls: 0 for no effect and ±100 for the full control effect; nearly all actives have a fitted effect of over 60% in size
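In this cell-based qHTS, ARE-driven firefly luciferase in A549 cells reports Nrf2 activity; the luminescent signal after BugLite lysis is the measured value, with a prior CellTiter-Fluor read for cell health.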
miR-21 reporter – miR-21 reporter, rising signal; HeLa miR-21 FLuc reporter, luciferase, 48 h; Potency, µM (highest dose often 38.3 µM), for the others: top-dose reporter change, positive = more light; 340,000 tested, under 10 active; AID 2288; active = well fitted rising curve with a large enough effect; inconclusive = small, poorly fitted or top-dose-only effect; inactive = no such curve, though single readings can be large or run the other way;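 further: % of control where 0% means no effect; miR-21 action dims this reporter so a rising signal means less miR-21 action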
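HeLa cells stably expressing CMV-driven firefly luciferase with a downstream miR-21 binding sequence, endogenously expressing miR-21, were treated with titrations (up to about 40uM final) for 48 hours at 37 degree Celsius. Luciferase luminescence was read after lysis.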
Numbers without * were called inactive; ? = inconclusive; · = not tested or not shown. Unless noted, calls come from the whole dose curve; as a rule, active = well fitted curve in the direction sought with a large enough effect; inconclusive = small, poorly fitted or top-dose-only effect, or another doubt; inactive = no such curve, though single readings can be large; an effect the other way counts as inactive or inconclusive.

Below each SMILES – A549 viability | Mito fusion act | Nrf2 ARE act | Nrf2 inh | miR-21 reporter
COc1ccc(C2CC(c3cccc(C(F)(F)F)c3)=NN2c2ccc(S(N)(=O)=O)cc2)cc1 (stereo not drawn)
 : -13% | · | -2% | 23µM* | ·
O=C(c1cccs1)N1N=C(c2ccccc2)CC1c1ccccc1 (stereo not drawn)
 : ? | ? | 1% | ? | -4%
COc1ccc(C2CC(c3cccs3)=NN2C(=O)CSC2=NCCS2)cc1 (stereo not drawn)
 : -26% | -1% | 18% | 18µM* | -15%
COc1ccc(C2CC(c3cccs3)=NN2C(=O)c2ccc(Br)o2)cc1 (stereo not drawn)
 : -3% | 18µM* | 0% | ? | -4%
COc1ccc(C2CC(c3cccs3)=NN2c2ccc(C=O)cc2)cc1 (stereo not drawn)
 : ? | 22µM* | 5% | -19% | -18%
CCC(=O)N1N=C(c2cccs2)CC1c1ccc(OC)cc1 (stereo not drawn)
 : 1% | 3% | 4% | -19% | -16%
COc1ccc(C2CC(c3cccs3)=NN2C(=O)c2ccco2)cc1OC (stereo not drawn)
 : -4% | 2% | 1% | 12% | -17%
c1ccc(C2CC(c3cccs3)=NN2c2ccccc2)cc1 (stereo not drawn)
 : ? | 9% | 0% | 4% | -12%
COc1c(C)cc(NS(=O)(=O)c2ccc3c(c2)OCCO3)cc1C
 : -10% | · | 6% | 23µM* | 27%
CN1CCOc2cc(S(=O)(=O)Nc3ccc(F)cc3)ccc21
 : -5% | 9% | 0% | · | 7%
COc1ccc(NS(=O)(=O)c2ccc3c(c2)OCCO3)cc1OC
 : -12% | -6% | 0% | 21µM* | 18%
Cc1ccc(NS(=O)(=O)c2ccc3c(c2)N(C)CCO3)cc1
 : -6% | 0% | 3% | 26µM* | 8%
Fc1cccc(Cl)c1Cc1noc(/C=C/c2ccccc2)n1
 : 0% | -3% | 16µM* | ? | -46%
CCOc1ccc(-c2cc(C(=O)Oc3ccc(C#N)cc3)no2)cc1
 : 1% | · | 0% | 14% | -11%
O=C(COC(=O)c1c[nH]c2ccccc12)Nc1ccccc1
 : 0% | · | 2% | 22% | ·
CC(NC(=O)COC(=O)CCc1ccccc1)c1ccccc1 (stereo not drawn)
 : 23µM* | -1% | 0% | ? | 1%
CC(NC(=O)COC(=O)c1c[nH]c2ccccc12)c1ccccc1 (stereo not drawn)
 : -17% | · | 2% | 21µM* | ·
CC(NC(=O)COC(=O)CSCc1ccccc1)c1ccccc1 (stereo not drawn)
 : -3% | 0% | 0% | 3% | -1%
O=C(CSc1nnc(-c2ccc(O)cc2)o1)c1ccc(Br)cc1
 : -1% | · | 4% | · | 2%
Cc1ccc(-c2c(CN3CCN(c4cccc(C)c4C)CC3)csc2C)cc1
 : 0% | · | -1% | 4% | 23%
Nc1nc(Cl)nc2c1ncn2[C@@H]1O[C@H](COP(=O)(O)OP(=O)(O)OP(=O)(O)O)[C@@H](O)[C@H]1O
 : · | -49% | · | · | ·
CC(C)CC(C(=O)NCc1ccc(F)cc1)N1Cc2ccccc2C1=O (stereo not drawn)
 : 8% | · | 4% | ? | 0%
C=CCNC(=S)N/N=C/c1ccc(C)cc1C
 : -3% | 8% | 14% | 18µM* | 17%
CCCCCCN1C=CC=C/C1=C/C=C(C#N)C#N
 : -16% | 13µM* | 0% | -3% | -3%
C=CCN1C=CC(=CC=C(C#N)C#N)C=C1
 : -17% | -3% | 7% | 21% | -16%
C=CCN1C=C/C(=C\C=C(C#N)C#N)c2ccccc21
 : 18µM* | 3% | 3% | ? | 9%
CCCCCN1C=CC=C/C1=C\C=C(C#N)C#N
 : -15% | -3% | -1% | 1% | 0%
CCCCCCN1C=C/C(=C\C=C(C#N)C#N)c2ccccc21
 : 6.5µM* | -4% | -1% | 18µM* | 1%
CCn1cc(CN(C)C(=O)CSc2nc(-c3ccco3)cc(C(F)(F)F)n2)c(C)n1
 : -11% | · | 0% | ? | ·
COc1ccccc1CCNC(=O)CCSc1nc(-c2ccco2)cc(C(F)(F)F)n1
 : -19% | 3% | -1% | 18µM* | 0%
COc1ccccc1CCNC(=O)CSc1nc(-c2ccco2)cc(C(F)(F)F)n1
 : -2% | 0% | 0% | ? | -1%
Cc1c(CN(C)C(=O)CSc2nc(-c3ccco3)cc(C(F)(F)F)n2)cnn1C
 : -18% | 3% | 0% | 16µM* | -1%
Cc1ccccc1CSc1nc2ccsc2c(=O)n1CCC(C)C
 : 4% | · | -1% | · | -8%
O=C(CSc1nc2ccccc2o1)N1c2ccccc2Sc2ccccc21
 : -3% | 13µM* | -1% | -21% | 1%
CC(=O)CSc1nc2ccccc2o1
 : 1% | 2% | 5% | ? | -43%
Cc1cc2c(cc1S(=O)(=O)NCc1ccc(F)cc1)n(C)c(=O)c(=O)n2C
 : 0% | · | 2% | -27% | 2%
CCOC(=O)c1c(C)[nH]c(C=O)c1Cc1cccc(Cl)c1
 : ? | 13µM* | 0% | 26µM* | 26%
CCCN(CCC)C(=O)c1cc2c(=O)[nH]c3ccc(C)cc3c2s1
 : -22% | -2% | -1% | 18µM* | -6%
CN(C)/C=N/c1nc2c(ncn2C2CC(O)C(CO)O2)c(=O)[nH]1 (stereo not drawn)
 : -3% | · | · | 0% | ·
CC(C)C(=O)Nc1c(C(=O)N2CCN(c3ccccc3F)CC2)oc2ccccc12
 : 1% | · | 1% | 5% | 0%

Four of the compounds above, as labelled records:
SMILES: Cc1cc2c(cc1S(=O)(=O)NCc1ccc(F)cc1)n(C)c(=O)c(=O)n2C
  A549 viability: 0%
  Mito fusion act: ·
  Nrf2 ARE act: 2%
  Nrf2 inh: -27%
  miR-21 reporter: 2%

SMILES: CCOC(=O)c1c(C)[nH]c(C=O)c1Cc1cccc(Cl)c1
  A549 viability: ?
  Mito fusion act: 13µM*
  Nrf2 ARE act: 0%
  Nrf2 inh: 26µM*
  miR-21 reporter: 26%

SMILES: CCCN(CCC)C(=O)c1cc2c(=O)[nH]c3ccc(C)cc3c2s1
  A549 viability: -22%
  Mito fusion act: -2%
  Nrf2 ARE act: -1%
  Nrf2 inh: 18µM*
  miR-21 reporter: -6%

SMILES: CN(C)/C=N/c1nc2c(ncn2C2CC(O)C(CO)O2)c(=O)[nH]1 (stereo not drawn)
  A549 viability: -3%
  Mito fusion act: ·
  Nrf2 ARE act: ·
  Nrf2 inh: 0%
  miR-21 reporter: ·

Other structures:
Below each SMILES – A549 viability | Mito fusion act | Nrf2 ARE act | Nrf2 inh | miR-21 reporter
O=C(Nc1c(C(=O)N2CCN(c3ccccc3F)CC2)oc2ccccc12)c1ccc(Br)o1
 : -9% | · | 1% | 23µM* | 17%
Cc1ccc(-n2c(=O)c3sc4ccccc4c3n(CC(=O)NC3CCCC3)c2=O)cc1C
 : -2% | · | -1% | ? | -2%
COc1cc(CN(C(=O)c2ccc(OC(C)C)cc2)c2ccccn2)cc(OC)c1OC
 : -5% | · | 4% | 5.2µM* | ?
Cn1c(/C(C#N)=C(\O)c2cc(Cl)sc2Cl)nc2ccccc21
 : 3% | 5% | 1.4µM* | 2% | 2%
Cn1c(/C(C#N)=C(\O)c2ccc(Br)s2)nc2ccccc21
 : 25% | 6% | 2% | ? | -4%
Cc1ccc(NS(=O)(=O)c2ccc3c(c2)CCC(=O)N3)cc1Cl
 : 17% | · | · | -3% | ·
Cc1ccc(C(=O)CN2C(=O)c3ccccc3S2(=O)=O)cc1
 : -4% | -5% | -3% | 21µM* | ?
C=CCn1c(C)cc(C(=O)CN2C(=O)c3ccccc3S2(=O)=O)c1C
 : 5% | 6% | -3% | 0.65µM* | ·
CCCSC1=NC2(CCN(C(=O)NC3CCCCC3)CC2)N=C1c1ccc(Cl)cc1
 : -7% | · | -1% | 16% | -1%
O=C1CCc2cc(S(=O)(=O)Nc3ccc4ncccc4c3)ccc2N1
 : -10% | · | · | 0% | ·
